High-throughput results (PubChem BioAssay)
Nrf2 inh: Nrf2 pathway inhibition | A549 ARE-Fluc reporter, luciferase luminescence, 18-24 h | Potency, µM (doses to about 46 µM), without a hit: at the highest dose activity change, negative = inhibition, actives largely listed as inhibitors | 2.1% of 360,000 active; also: potency is read from the fitted curve at half-maximal effect; % is scaled to controls: 0 for no effect and ±100 for the full control effect; nearly all actives have a fitted effect of over 60% in size
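Two sequential reads on A549 ARE_Fluc cells exposed to compound for 18-24 h: a CellTiter-Fluor fluorescence read for viability, then a luciferase luminescence read for Nrf2/ARE activity.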
Nrf2 activator: activators of Nrf2 (ARE) signaling | AREc32 ARE-luciferase reporter (MCF7-derived line), luminescence, 24 h | Potency, µM (top dose mostly 46.1 µM), for the others: at the highest dose activation, actives largely listed as activators | 0.31% of 410,000 active | AID 624171; also: potency is read from the fitted curve at half-maximal effect; % of control where 0% means no effect; nearly all actives have a fitted effect of over 65% in size
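Cells of the AREc32 ARE-luciferase line are plated in OPTI-MEM containing 5% FBS and left overnight at 37 deg C. Compounds are pinned in, incubation continues 24 hr, and firefly luciferase signal is then measured.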
B2AR arrestin: beta2AR (human) beta-arrestin recruitment activity; P07550; beta-arrestin recruitment to beta2AR, cell-based reporter; Potency, µM (doses to about 46.1 µM), for the others: at the highest dose activation, actives largely listed as activators; 0.02% of 330,000 active;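 also: potency is read from the fitted curve at half-maximal effect; 0% = DMSO controls and full agonism = EC100 isoproterenol or metaproterenol; nearly all actives have a fitted effect of over 65% in size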
A549 tox-1: A549 cytotoxicity, counter-screen for Nrf2 inhibitors. A549 ARE-Fluc cells, CellTiter-Fluor viability, 18-24 h. Potency, µM (top dose mostly 46 µM), for the others: at the top dose activity change, negative = cytotoxicity, usual class: inhibitors. 0.16% of 390,000 active. AID 504648; also: potency is read from the fitted curve at half-maximal effect; % is scaled to controls: 0 for no effect and ±100 for the full control effect
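A549 ARE_Fluc cells in 5% FBS OPTI-MEM were exposed to compounds in concentration-response for 18-24 h at 37 deg C. Viability was read by CellTiter-Fluor fluorescence (Ex 405/Em 525) after 30 min, before the luciferase read.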
miR-21 reporter: miR-21 reporter, rising signal | AID 2288 | HeLa miR-21 FLuc reporter, luciferase, 48 h | 340,000 tested, under 10 active | Potency, µM (titrated, usually from 38.3 µM), for the others: at the top dose reporter change, positive = more light; active = well fitted rising curve with a large enough effect; inconclusive = small, poorly fitted or top-dose-only effect; inactive = no such curve, though single readings can be large or run the other way;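 also: % of control where 0% means no effect; miR-21 action dims this reporter so a rising signal means less miR-21 action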
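Compounds were titrated across several concentrations (up to approximately 40 uM) and incubated 48 hours with HeLa miR-21-FLuc reporter cells (miR-21 target sequence downstream of FLuc, endogenous miR-21). Readout was firefly luciferase luminescence after lytic detection reagent.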
FLuc counter 3: blocks purified firefly luciferase in Nrf2 counterscreen | 4% of 1,400 active | shares compounds with Nrf2 inh | Potency, µM (series often up to 57.5 µM), inactives show at the highest dose activity change, negative = inhibition, most hits filed as inhibitors | purified firefly luciferase, luminescence inhibition; also: potency is read from the fitted curve at half-maximal effect; % is scaled to controls: 0 for no effect and ±100 for the full control effect; nearly all actives have a fitted effect of over 65% in size
A549 tox-2: A549 cytotoxicity, Nrf2 inhibitor counterscreen. shares compounds with Nrf2 inh. A549 ARE-Fluc cells, cytotoxicity counterscreen. Potency, µM (series often up to 46.1 µM), without a hit: top-dose activity change, negative = cytotoxicity, usual class: inhibitors. 2% of 1,400 active. AID 720523;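 also: potency is read from the fitted curve at half-maximal effect; cells exposed to compounds for 18 to 24 hours; % is scaled to controls: 0 for no effect and ±100 for the full control effect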
ARE-Fluc inh: confirmation of Nrf2 inhibitors in A549 ARE reporter cells | shares compounds with Nrf2 inh | A549 ARE-firefly luciferase reporter, luminescence | Potency, µM (top dose mostly 46.1 µM), inactives show at the highest dose activity change, negative = inhibition, most hits filed as inhibitors | 74% of 1,400 active | AID 720524; also: potency is read from the fitted curve at half-maximal effect; % is scaled to controls: 0 for no effect and ±100 for the full control effect; nearly all actives have a fitted effect of over 65% in size
Starred values were filed as active, the others as inactive; ? = inconclusive; · = not tested or not shown. This is a sample that favours compounds with a hit; in the whole collection about 2.2% have one here. Unless noted, calls follow the shape of the dose curve; as a rule, active = well fitted curve in the direction sought with a large enough effect; inconclusive = small, poorly fitted or top-dose-only effect, or another doubt; inactive = no such curve, though single readings can be large; an effect the other way counts as inactive or inconclusive.

1. Cc1oc2ccc(O)c(CN3CCCC3)c2c1C(=O)Nc1ccc(C(C)C)cc1
2. Cc1ccc(C)c(-n2cc(-c3ccccc3)nc2SCC(=O)Nc2ccccc2)c1
3. CC(=O)Nc1ccc(S(=O)(=O)NCCc2csc3nc(-c4ccc(Cl)cc4)nn23)cc1
4. CCCCNC(=O)CSc1nc2n[nH]c(C)c2c(=N)n1-c1ccccc1CC
5. COc1ccc(S(=O)(=O)Nc2ccc(Cc3ccncc3)cc2)cc1OC
6. Cc1nc(-n2nc(C)c(CCC(C)C)c2C)sc1C(=O)Nc1ccc(Br)cc1
entry no.,1,2,3,4,5,6
Nrf2 inh,18.0%,·,·,·,6.51µM*,27.0%
Nrf2 activator,12.0%,3.1%,5.6%,3.5%,3.3%,0.9%
B2AR arrestin,·,·,·,·,-0.3%,·
A549 tox-1,-17.3%,1.2%,-12.8%,-4.4%,-17.2%,3.3%
miR-21 reporter,-8.3%,17.2%,17.7%,-16.1%,18.3%,-16.6%
FLuc counter 3,·,·,·,·,1.8%,·
A549 tox-2,·,·,·,·,3.9%,·
ARE-Fluc inh,·,·,·,·,?,·

7. CCC(=O)c1ccc(OCc2ccc(C(=O)c3ccccc3)cc2)cc1
8. CCN(CC(=O)Nc1c(C(=O)OC)[nH]c2ccc(Cl)cc12)c1ccc2c(c1)OCO2
9. CCOC(=O)c1[nH]c2ccc(Cl)cc2c1NC(=O)/C=C/c1ccc2c(c1)OCO2
10. O=C(Cc1ccc(Cl)cc1)Nc1ccncc1
11. Cc1ccc(CC(=O)Nc2ccncc2)cc1
12. O=C(Nc1cccc(S(=O)(=O)C(F)F)c1)c1ccc(S(=O)(=O)N2CCCC2)cc1
entry no.,7,8,9,10,11,12
Nrf2 inh,7.31µM*,?,5.17µM*,5.8µM*,?,5.8µM*
Nrf2 activator,0.2%,5.7%,0.0%,2.4%,-0.2%,0.1%
B2AR arrestin,0.0%,-0.1%,1.0%,-0.4%,3.2%,0.2%
A549 tox-1,?,-20.3%,-23.3%,-10.8%,-3.6%,?
miR-21 reporter,1.8%,20.3%,-2.7%,17.8%,18.1%,23.1%
FLuc counter 3,-2.0%,·,0.4%,1.6%,·,1.7%
A549 tox-2,-2.4%,·,-27.3%,3.5%,·,-7.3%
ARE-Fluc inh,8.2µM*,·,4.11µM*,-23.6%,·,?

13. O=C(Nc1cccc(S(=O)(=O)C(F)F)c1)c1ccc(S(=O)(=O)N2CCOCC2)cc1
14. COc1ccc(NS(=O)(=O)c2cccc(NC(=O)c3ccc(S(=O)(=O)N4CCCCCC4)cc3)c2)cc1
15. O=C(NCC(c1cccnc1)N1CCN(Cc2ccccc2)CC1)C(=O)Nc1ccc(Cl)cc1 (centres undefined)
16. COc1cccc2c1cc1c(=O)n(CC(=O)NCc3ccco3)nc(C)n12
17. COc1ccc(NC(=O)CSc2nc(-c3ccco3)cc(C(F)(F)F)n2)cc1Cl
18. COc1ccc(NC(=O)CCSc2nc(-c3ccco3)cc(C(F)(F)F)n2)cc1
entry no.,13,14,15,16,17,18
Nrf2 inh,-37.2%,5.8µM*,-10.5%,14.3%,7.31µM*,2.8%
Nrf2 activator,1.1%,0.2%,3.5%,2.8%,3.8%,0.0%
B2AR arrestin,-0.1%,-0.2%,·,·,·,·
A549 tox-1,-1.5%,?,1.1%,5.0%,-10.2%,-4.4%
miR-21 reporter,13.7%,29.8%,-14.7%,-1.1%,16.7%,-6.0%
FLuc counter 3,·,-2.5%,·,·,-0.5%,·
A549 tox-2,·,-14.5%,·,·,-4.8%,·
ARE-Fluc inh,·,5.8µM*,·,·,20.6µM*,·

Retrieved one by one from the entries so far:
13. O=C(Nc1cccc(S(=O)(=O)C(F)F)c1)c1ccc(S(=O)(=O)N2CCOCC2)cc1
18. COc1ccc(NC(=O)CCSc2nc(-c3ccco3)cc(C(F)(F)F)n2)cc1
entry no.,13,18
Nrf2 inh,-37.2%,2.8%
Nrf2 activator,1.1%,0.0%
B2AR arrestin,-0.1%,·
A549 tox-1,-1.5%,-4.4%
miR-21 reporter,13.7%,-6.0%
FLuc counter 3,·,·
A549 tox-2,·,·
ARE-Fluc inh,·,·

The list goes on:
19. O=S(=O)(Nc1cc(Sc2ncn[nH]2)c(O)c2ccccc12)c1ccccc1
20. O=C(O)CSc1cc(NS(=O)(=O)c2ccc(Br)cc2)c2ccccc2c1O
21. COc1ccc2c(CNC3CCC(C)CC3)c(C(=O)O)n(Cc3ccc(F)cc3)c2c1 (centres undefined)
22. CCOC(=O)c1cnc2ccc(OCC)cc2c1NCCc1ccc(OC)c(OC)c1
23. CC(=O)Nc1ccc(NC(=O)c2c(-c3ccccc3)noc2C)cn1
24. Cc1onc(-c2ccccc2)c1C(=O)Nc1ccncc1
entry no.,19,20,21,22,23,24
Nrf2 inh,?,2.31µM*,10.4%,3.66µM*,7.31µM*,7.7%
Nrf2 activator,-3.2%,0.4%,0.1%,-2.0%,2.2%,-0.1%
B2AR arrestin,0.1%,-1.5%,·,·,-0.2%,0.0%
A549 tox-1,?,-16.4%,?,-17.2%,-0.7%,2.7%
miR-21 reporter,?,26.7%,-0.8%,-5.3%,-13.2%,4.4%
FLuc counter 3,·,12µM*,·,-15.7%,3.5%,·
A549 tox-2,·,-3.9%,·,?,-8.0%,·
ARE-Fluc inh,·,-8.1%,·,13µM*,9.2µM*,·

25. O=C(Nc1nccs1)c1ccc(-c2cccc([N+](=O)[O-])c2)o1
26. O=C(Nc1ncc(Cc2cccc(C(F)(F)F)c2)s1)c1ccc(-c2cccc([N+](=O)[O-])c2)o1
27. COc1cccc(NC(=O)c2ccc3c(c2)CCN3S(C)(=O)=O)c1
28. CS(=O)(=O)N1CCCc2cc(C(=O)Nc3cccc(C(F)(F)F)c3)ccc21
29. COc1cc2sc3ccc(C#Cc4ccc(N)cc4)cc3c(=O)c2cc1OC
30. CC(=O)c1ccc(N2CCN(C(=S)Nc3ccc(Oc4ccccc4)cc3)CC2)cc1
entry no.,25,26,27,28,29,30
Nrf2 inh,?,2.59µM*,20.2%,9.2µM*,4.61µM*,6.51µM*
Nrf2 activator,3.7%,0.3%,4.2%,0.6%,4.6%,1.7%
B2AR arrestin,0.0%,-0.5%,-0.3%,·,·,-0.1%
A549 tox-1,-10.4%,-26.5%,3.4%,-28.3%,-20.5%,?
miR-21 reporter,-13.3%,-6.0%,-17.0%,?,·,26.2%
FLuc counter 3,·,-2.2%,·,?,-21.9%,-9.1%
A549 tox-2,·,-1.1%,·,-15.5%,?,-0.7%
ARE-Fluc inh,·,5.17µM*,·,?,2.31µM*,8.2µM*

31. COc1ccc(N2CCN(C(=S)Nc3ccccc3)CC2)cc1
32. CC(C)CC(=O)N1CCN(S(=O)(=O)c2ccc(C3CCCCC3)cc2)CC1
33. Cc1cc(C2=NNC(=NC3CC3)SC2)c(C)n1-c1ccccc1F
34. Cc1cccc(-c2noc(-c3cc(C(C)C)[nH]n3)n2)c1
35. Cc1ccccc1/C=C/c1cccc[n+]1C
36. C[n+]1ccccc1/C=C/c1c(F)cccc1F
entry no.,31,32,33,34,35,36
Nrf2 inh,0.1%,8.2µM*,0.92µM*,23.5%,1.84µM*,2.59µM*
Nrf2 activator,-0.5%,-1.2%,-2.6%,-2.4%,0.2%,-0.6%
B2AR arrestin,-0.1%,-0.1%,-0.7%,·,0.1%,0.5%
A549 tox-1,9.6%,-16.2%,-3.8%,-1.3%,-28.8%,?
miR-21 reporter,5.0%,·,?,-39.6%,6.4%,-1.8%
FLuc counter 3,·,1.5%,2.7%,·,2.4%,1.3%
A549 tox-2,·,-4.9%,-9.7%,·,-28.3%,-29.8%
ARE-Fluc inh,·,?,·,·,4.11µM*,2.06µM*

37. C[n+]1ccccc1/C=C/c1ccccc1Cl
38. C[n+]1ccccc1/C=C/c1ccc([N+](=O)[O-])cc1
39. Cc1ccc(S(=O)(=O)N(C)Cc2ccc(C(=O)N/N=C/c3ccc(OC(F)F)cc3OC(F)F)cc2)cc1
40. O=C(N/N=C/c1ccc(OC(F)F)cc1OC(F)F)c1ccc(Br)cc1
entry no.,37,38,39,40
Nrf2 inh,26.4%,3.66µM*,9.2µM*,15.7%
Nrf2 activator,21.8%,0.1%,2.9%,3.5%
B2AR arrestin,0.1%,0.3%,-1.0%,-3.9%
A549 tox-1,-11.0%,?,-1.6%,0.7%
miR-21 reporter,-8.3%,3.9%,?,-9.3%
FLuc counter 3,·,1.1%,2.2%,·
A549 tox-2,·,?,-6.7%,·
ARE-Fluc inh,·,7.31µM*,4.61µM*,·
